# Laboratory results: ChEMBL document CHEMBL1128343, “Synthesis, properties, and pharmacokinetic studies of N2-phenylguanine derivatives as inhibitors of herpes simplex virus thymidine kinases” (J Med Chem, 1995)
# Columns and labels:
# Thymidine kinase [1] = target: T1, Thymidine kinase (Human herpesvirus 2, UniProt Q6L709); test: Inhibition of HSV-2 thymidine kinase, 2 uM [3H]thymidine and ATP as phosphate donor; set-up: species or system Human alphaherpesvirus 2
# T1 sequence (Q6L709 whole entry): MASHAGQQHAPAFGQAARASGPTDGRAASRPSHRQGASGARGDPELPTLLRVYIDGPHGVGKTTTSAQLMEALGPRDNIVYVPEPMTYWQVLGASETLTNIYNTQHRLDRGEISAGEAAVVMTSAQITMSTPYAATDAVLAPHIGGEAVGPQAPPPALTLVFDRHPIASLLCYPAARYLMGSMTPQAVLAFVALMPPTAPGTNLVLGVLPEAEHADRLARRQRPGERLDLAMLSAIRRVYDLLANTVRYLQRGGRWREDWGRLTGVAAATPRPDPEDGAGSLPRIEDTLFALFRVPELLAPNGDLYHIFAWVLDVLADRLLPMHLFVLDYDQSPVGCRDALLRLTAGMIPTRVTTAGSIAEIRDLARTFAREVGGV
# Thymidine kinase [2] = target: T2, Thymidine kinase (Human alphaherpesvirus 1, UniProt Q9QNF7); test: Inhibition of HSV-1 thymidine kinase, 1 uM [3H]thymidine and ATP as phosphate donor
# T2 sequence (Q9QNF7 whole entry): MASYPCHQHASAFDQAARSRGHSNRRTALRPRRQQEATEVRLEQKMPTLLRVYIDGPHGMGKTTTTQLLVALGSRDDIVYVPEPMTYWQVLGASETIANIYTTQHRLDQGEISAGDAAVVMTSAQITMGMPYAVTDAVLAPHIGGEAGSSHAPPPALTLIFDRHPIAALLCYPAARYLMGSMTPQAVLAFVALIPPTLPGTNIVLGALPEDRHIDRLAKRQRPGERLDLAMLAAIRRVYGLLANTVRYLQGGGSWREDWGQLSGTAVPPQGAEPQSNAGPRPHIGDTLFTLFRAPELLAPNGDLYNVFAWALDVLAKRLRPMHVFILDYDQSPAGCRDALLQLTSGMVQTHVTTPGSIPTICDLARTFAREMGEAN
SMILES,IC50 (Thymidine kinase [1]) [nM],IC50 (Thymidine kinase [2]) [nM]
O=c1[nH]c(Nc2ccccc2)nc2c1ncn2CCO,1200,2900
C=CCn1cnc2c(=O)[nH]c(Nc3ccccc3)nc21,,450
